Patent publication US20090087431A1, “METHODS OF TREATING BONE DISORDERS WITH MODULATORS OF AXL” (Wyeth, priority 2007, published 2009)

Legend:
C3H10T½ cells = assay: BMP2 effect on Axl gene expression, quantitative RT-PCR; format: cell-based, murine; settings: 100 ng/ml or 320 ng/ml rhBMP2, within 24 hours of treatment
Protocol: (§1) The effect of the osteoinductive factor BMP2 on Axl gene expression was assayed in two murine mesenchymal cell lines, C3H10T½pluripotent mesenchymal cells and Clone 14 murine limb bud progenitor cells. Briefly, C3H10T½ or Clone 14 cells were incubated in the presence of either 100 ng/ml or 320 ng/ml rhBMP2. Samples were obtained at 2, 6, and 24 hours post addition of rhBMP2 and the amount of Axl measured using quantitative RT-PCR. […] C14: Clone 14 cells; 10T½: C3H10T½ cells.

Clone 14 cells = assay: as above; format: cell-based, murine; settings: 100 ng/ml or 320 ng/ml rhBMP2, within 24 hours of treatment
Protocol: as §1

B1: rhBMP2: recombinant human bone morphogenetic protein 2, osteoinductive factor (protein, UniProt P12643 283-396, looked up)
Bone morphogenetic protein 2: QAKHKQRKRLKSSCKRHPLYVDFSDVGWNDWIVAPPGYHAFYCHGECPFPLADHLNSTNHAIVQTLVNSVNSKIPKACCVPTELSAISMLYLDENEKVVLKNYQDMVVEGCGCR
C3H10T½ cells
  Axl expression downregulated: approximately two-fold
Clone 14 cells
  Axl expression downregulated: approximately two-fold
